Most compounds without a hit are left out; they make up all but 2.3% or so of the library.
Nrf2 inh: Nrf2 pathway inhibition | A549 ARE-Fluc reporter, luciferase luminescence, 18-24 h | Potency, µM (doses to about 46 µM), usual class: inhibitors | 360,000 compounds, 2.1% hits | AID 504444; also: nearly all actives have a fitted effect of over 60% in size
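Nrf2 function is reported as luminescence of an ARE-controlled luciferase in A549 cells. Compounds were tested at several concentrations, and a CellTiter-Fluor read on the same wells flagged cytotoxicity.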
A549 tox: counter-screen for Nrf2 inhibitors: cytotoxicity in A549 cells. A549 ARE-Fluc cells, CellTiter-Fluor viability, 18-24 h. Potency, µM (highest dose often 46 µM), most hits filed as inhibitors. 390,000 compounds, 0.16% hits
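A549 ARE_Fluc cells in 5% FBS OPTI-MEM were exposed to compounds in concentration-response for 18-24 h at 37 deg C. Viability was read by CellTiter-Fluor fluorescence (Ex 405/Em 525) after 30 min, before the luciferase read.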
Rango-impB inh: prevents formation of the Rango-importin beta complex. 340,000 compounds, 0.031% hits. Rango CFP/YFP FRET sensor + importin beta, 45 min. Potency, µM (series often up to 92.2 µM). AID 540263. Q14974; calls by dose curve; also: nearly all actives have a fitted effect of over 15% in size
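Inhibition scored from the CFP 486 nm/YFP 530 nm FRET ratio 45 min after adding 0.125 microM importin beta to 50 nM Rango biosensor preincubated 5 min with compound (room temperature, PBS with DTT, Tween-20, BSA). No-importin wells as positive control.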
Rango dissoc inh: inhibition of RanGTP-driven Rango-importin beta dissociation. Potency, µM (doses to about 46.1 µM). Biochemical FRET Rango-importin beta, RanGTP-induced dissociation. 340,000 compounds, 0.071% hits; calls by dose curve; also: nearly all actives have a fitted effect of over 45% in size
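Compounds preincubate 5 min with complex of recombinant Rango and importin beta in PBS with 1 mM DTT. Ran (0.6 uM) loaded with 2 mM GTP plus 0.2 uM RCC1 starts dissociation; FRET is recorded 45 min later.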
Nrf2 ARE act: activates Nrf2 signaling; AREc32 ARE-luciferase reporter (MCF7-derived line), luminescence, 24 h; Potency, µM (titrated, usually from 46.1 µM), actives largely listed as activators; 410,000 compounds, 0.31% hits; AID 624171; also: nearly all actives have a fitted effect of over 65% in size
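For detection, Steady-Glo was added and plates sat 30 min at RT; before that, AREc32_Fluc cells grown overnight in OPTI-MEM/5% FBS had been treated with 23 nL compound for 24 hr at 37 deg C.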
Large screens that a line does not name were inactive. Unless noted, calls follow the shape of the dose curve; as a rule, active = well fitted curve in the direction sought with a large enough effect; inconclusive = small, poorly fitted or top-dose-only effect, or another doubt; inactive = no such curve, though single readings can be large; an effect the other way counts as inactive or inconclusive.

COC(=O)C1=C(c2ccccc2OCc2ccccc2)C[C@@H]2CC[C@H]1N2C(=O)NCc1ccc(F)cc1	Nrf2 inh 23µM, A549 tox inconclusive
CCOCCSc1nc2c(c(-c3cccs3)c1C#N)CC/C2=C/c1cccs1	Rango-impB inh inconclusive, Rango dissoc inh inconclusive
COc1ccc(NC(=O)CCOc2cc(C)ccc2C)cc1S(=O)(=O)N1CCCCC1	Nrf2 inh inconclusive
Cc1ccc(C)c(N2CCN(C(=O)C3CCCN(S(=O)(=O)c4cccc5nsnc45)C3)CC2)c1 (stereo unspecified)	Nrf2 inh 16µM (no result: Rango-impB inh, Rango dissoc inh)
O=c1oc2ccccc2c(O)c1C(c1ccc([N+](=O)[O-])cc1)c1c(O)c2ccccc2oc1=O	Nrf2 inh inconclusive, A549 tox inconclusive
C/C(CC(c1ccccc1)c1c(O)c2ccccc2oc1=O)=N\Nc1ccc([N+](=O)[O-])cc1[N+](=O)[O-] (stereo unspecified)	Nrf2 inh 23µM, A549 tox inconclusive
CCOc1cc(/C=N/NC(=O)c2cccs2)ccc1OC(=O)N1CCOCC1	Nrf2 inh inconclusive
O=C(CCCc1nc(-c2ccc(Cl)cc2)no1)NCC1CCCO1 (stereo unspecified)	Nrf2 inh 13µM
Fc1ccc(-c2nc3c(-c4ccc(F)cc4)cnn3cc2CCN2CCOCC2)cc1	Nrf2 inh inconclusive, Rango-impB inh inconclusive
C[C@H](CO)N1C[C@H](C)[C@@H](CN(C)Cc2ccc(-c3ccccc3)cc2)Oc2c(NC(=O)c3ccncc3)cccc2C1=O	Nrf2 inh 21µM
O=C(Nc1ccc2nc(SCC(=O)N3CCCc4ccccc43)sc2c1)c1cccc(F)c1	Nrf2 inh inconclusive (no result: Rango-impB inh, Rango dissoc inh)
CN(C)S(=O)(=O)c1ccc(C(=O)NNc2nc(-c3ccccc3)c3cc(Br)ccc3n2)cc1	Nrf2 inh 13µM
CC(C)c1ccc(Cc2cn3cc(-c4cc5ccccc5oc4=O)nc3s2)cc1	Nrf2 inh inconclusive (no result: Rango-impB inh, Rango dissoc inh)
O=C(Cc1coc2cc3c(cc12)CCC3)OCC(=O)N1CCCC1=O	Nrf2 inh inconclusive
O=C(O)CSCC(=O)N(Cc1ccccc1)c1nc(-c2ccccc2)c(-c2ccccc2)s1	Nrf2 inh inconclusive
Cc1ccc(-c2cc(-c3ccc(C)cc3)[n+](-c3ccc(C(=O)O)cc3)c(-c3ccc(C)cc3)c2)cc1	none
Cc1ccc(C[n+]2c(-c3ccc(C)cc3)cc(-c3ccc(C)cc3)cc2-c2ccc(C)cc2)cc1	Nrf2 inh 5.2µM, A549 tox 18µM
Cc1ccc(S(=O)(=O)c2nnn3c2nc(N2CCC(C(N)=O)CC2)c2cc(Cl)ccc23)cc1C	Nrf2 inh inconclusive (no result: Rango-impB inh, Rango dissoc inh)
COc1cccc(OC)c1-c1nn2c(-c3n[nH]c4c3CCC4)nnc2s1	Nrf2 inh inconclusive (no result: Rango-impB inh, Rango dissoc inh, Nrf2 ARE act)
CCOc1ccc(NCc2cccn2-c2nnc(N3CCC(C(=O)NCc4ccc(C)cc4)CC3)s2)cc1	Nrf2 inh inconclusive (no result: Rango-impB inh, Rango dissoc inh)
Cc1ccc(NCc2cccn2-c2nnc(N3CCC(C(=O)NCc4ccc(OC(C)C)cc4)CC3)s2)cc1	Nrf2 inh 26µM (no result: Rango-impB inh, Rango dissoc inh)
CCOc1ccc(NCc2cccn2-c2nnc(N3CCC(C(=O)NCC(C)c4ccccc4)CC3)s2)cc1 (stereo unspecified)	Nrf2 inh 15µM (no result: Rango-impB inh, Rango dissoc inh)
CC(=O)O[C@H]1C[C@@H]2OC3C=C(C)CCC3(C)[C@@]1(C)[C@@]21CO1 (stereo partly specified)	Nrf2 inh 6.5µM (no result: A549 tox)
COC(=O)[C@H]1[C@H]2C[C@@H]3c4[nH]c5cc(OC)ccc5c4CCN3C[C@H]2C[C@@H](OC(=O)/C=C/c2cc(OC)c(OC)c(OC)c2)[C@@H]1OC	Rango-impB inh inconclusive, Rango dissoc inh 5.8µM
Cc1ccc(NS(=O)(=O)c2c(F)cc(F)c(Cl)c2F)cc1S(=O)(=O)N1CCOCC1	Nrf2 ARE act inconclusive
O=S(=O)(c1ccc(Cl)cc1)N1CCC(n2cnc3cc(C(F)(F)F)ccc32)CC1	Nrf2 inh inconclusive
COc1cccc(CN2CCC(n3nccc3NC(=O)CCOc3ccccc3)CC2)c1O	Nrf2 inh inconclusive
CCOc1cc2c(cc1OCC)-n1cccc1C(c1ccc(C(C)C)cc1)NC2 (stereo unspecified)	Nrf2 inh 23µM, A549 tox inconclusive
CCOc1cc2c(cc1OCC)-n1cccc1C(c1ccc(F)cc1)NC2 (stereo unspecified)	none
C=CCN1C(=O)/C(=C\c2ccc(N3CCOCC3)o2)C(=O)NC1=S	Rango-impB inh 65µM
Nc1nonc1-n1nnc(C(=O)N/N=C/c2ccc3c(c2)OCO3)c1CSc1ccccc1	Nrf2 inh inconclusive
C=Cc1cc(OC)c2c(c1)c(=O)oc1c2cc(OC)c2c(O)ccc(C3OC(C)C(O)C(C)(O)C3O)c21 (stereo unspecified)	Nrf2 inh 2.1µM, A549 tox 5.2µM, Rango-impB inh inconclusive, Rango dissoc inh inconclusive
Cc1ccc(S(=O)(=O)N(CC(=O)NCCSc2ccc(Cl)cc2)c2ccccc2C)cc1	Nrf2 inh inconclusive (no result: Rango-impB inh, Rango dissoc inh)
Cc1cccc(N2C(=O)/C(=C/c3ccc(CN(CCC#N)S(C)(=O)=O)o3)C(=O)NC2=S)c1	Rango-impB inh inconclusive, Rango dissoc inh 23µM (no result: Nrf2 inh)
Nc1nnc(Sc2ncccc2[N+](=O)[O-])s1	Nrf2 ARE act inconclusive
COCCCNC(=O)c1c(NC(=O)c2ccco2)n(Cc2ccccc2)c2nc3ccccc3nc12	Rango-impB inh inconclusive, Rango dissoc inh inconclusive, Nrf2 ARE act 16µM
COCCNC(=O)c1c(NC(=O)c2ccc(Br)o2)n(Cc2ccccc2)c2nc3ccccc3nc12	Rango-impB inh inconclusive, Rango dissoc inh inconclusive
CC(OC(=O)COc1ccc(Nc2ccccc2)cc1)C(=O)N(C)c1ccccc1 (stereo unspecified)	none
COC(=O)C1=C(c2cccc(OCc3ccccc3)c2)C[C@@H]2CC[C@H]1N2C(=O)NCc1ccccc1OC	Nrf2 inh 21µM, A549 tox inconclusive
COC(=O)C1=C(c2ccc(OCc3ccccc3)cc2)C[C@@H]2CC[C@H]1N2C(=O)NCc1cccc(OC)c1	Nrf2 inh 23µM
COC(=O)C1=C(c2cccc(OCc3ccccc3)c2)C[C@@H]2CC[C@H]1N2C(=O)NCc1ccc(Cl)cc1	Nrf2 inh 23µM
COC(=O)C1=C(c2ccc(OCc3ccccc3)cc2)C[C@@H]2CC[C@H]1N2C(=O)NCc1ccc(OC)cc1	none (no result: Nrf2 inh, A549 tox, Rango-impB inh, Rango dissoc inh)
CC(C)CNC(=O)c1c(N)n(Cc2ccc3c(c2)OCO3)c2nc3ccccc3nc12	Nrf2 inh inconclusive, A549 tox inconclusive, Rango-impB inh inconclusive, Rango dissoc inh inconclusive
CC(C)CCNC(=O)c1c(N)n(Cc2ccc3c(c2)OCO3)c2nc3ccccc3nc12	Nrf2 inh 21µM, A549 tox 16µM, Rango-impB inh inconclusive, Rango dissoc inh inconclusive
COc1ccc(C(=O)NCCn2cc(SCc3ccc(C(F)(F)F)cc3)c3ccccc32)cc1OC	Nrf2 inh 18µM (no result: Rango-impB inh, Rango dissoc inh)
COc1ccc(CCNc2nccn(-c3ccc(C)c(C)c3)c2=O)cc1OC	Nrf2 inh inconclusive (no result: Rango-impB inh, Rango dissoc inh)

Source: PubChem
